Measurements published in patent US20250101013A1, “FUNCTIONALIZED AMINOTHIAZOLES” (LEADXPRO AG, priority 2022, published 2025).

The chains behind the UniProt entries cited, without tags or fusion partners. Where a name states a change or a piece, a line headed by the entry shows the natural chain unless it says otherwise.
UniProt P0DMS8, whole entry: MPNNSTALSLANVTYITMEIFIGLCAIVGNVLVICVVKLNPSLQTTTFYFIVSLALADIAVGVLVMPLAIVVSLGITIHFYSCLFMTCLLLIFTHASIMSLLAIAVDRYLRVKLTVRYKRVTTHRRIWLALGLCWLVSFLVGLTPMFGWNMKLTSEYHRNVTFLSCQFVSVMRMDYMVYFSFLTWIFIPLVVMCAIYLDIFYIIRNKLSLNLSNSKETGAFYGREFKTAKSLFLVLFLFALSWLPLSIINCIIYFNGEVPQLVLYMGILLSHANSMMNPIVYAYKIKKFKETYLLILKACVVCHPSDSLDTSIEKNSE
UniProt P29275, whole entry: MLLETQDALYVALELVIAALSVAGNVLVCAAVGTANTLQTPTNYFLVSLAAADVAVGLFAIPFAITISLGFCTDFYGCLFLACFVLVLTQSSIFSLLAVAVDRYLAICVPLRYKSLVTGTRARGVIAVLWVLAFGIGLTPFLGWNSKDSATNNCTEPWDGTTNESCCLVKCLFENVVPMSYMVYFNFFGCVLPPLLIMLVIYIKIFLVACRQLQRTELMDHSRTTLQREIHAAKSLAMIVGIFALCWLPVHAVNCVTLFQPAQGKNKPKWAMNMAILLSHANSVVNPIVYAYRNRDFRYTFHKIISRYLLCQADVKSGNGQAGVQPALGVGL
UniProt P30542, whole entry: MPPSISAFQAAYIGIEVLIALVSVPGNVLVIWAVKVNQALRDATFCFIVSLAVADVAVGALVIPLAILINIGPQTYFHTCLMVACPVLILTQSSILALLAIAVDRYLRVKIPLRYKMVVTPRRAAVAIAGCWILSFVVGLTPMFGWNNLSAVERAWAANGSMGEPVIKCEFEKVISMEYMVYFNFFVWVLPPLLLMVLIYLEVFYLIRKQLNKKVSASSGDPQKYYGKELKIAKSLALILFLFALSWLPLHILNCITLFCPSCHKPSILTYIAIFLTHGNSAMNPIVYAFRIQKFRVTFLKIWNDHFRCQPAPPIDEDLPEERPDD

Columns and labels:
[1] = target: human A3 receptor (Homo sapiens (Human), UniProt P0DMS8); assay: Intracellular cAMP functional assay (HTRF), A3; conditions: read-out: Human A3 EC50, HEK293 cells expressing recombinant human receptor
Procedure: (§1) Compound activity in human adenosine receptors A2A, A2B, A1, and A3 was measured in this functional cellular assay using an HTRF kit (Perkin Elmer). Prior to the test, HEK293 cells expressing recombinant human adenosine receptors were grown in media without antibiotic, were detached by gentle flushing with PBS-EDTA (5 mM EDTA), were recovered by centrifugation and were resuspended in assay buffer (KRH: 5 mM KCl, 1.25 mM MgSO4, 124 mM NaCl, 25 mM HEPES, 13.3 mM Glucose, 1.25 mM KH2PO4, 1.45 mM CaCl2, 0.5 g/l BSA, supplemented with 1 mM IBMX or 25 μM Rolipram). Dose response curves were performed in parallel with the reference compounds. The reference compounds used for A2A, A2B, A1, and A3, were respectively NECA, ZM241385, DPCPX, MRS. 12 μl of cells were mixed with 6 μl of the test compound at increasing concentrations and then incubated 10 min. Thereafter 6 μl of the reference agonist was added at a final concentration corresponding to the historical EC80. The plates were then incubated for 30 min at room temperature. After addition of the lysis buffer and 1 hour incubation, cAMP concentrations were estimated, according to the manufacturer specification, with the HTRF kit. The results showing functional activity of embodied compounds on adenosine receptors are shown below in Table 1.

[2] = target: human A2B receptor (Homo sapiens (Human), UniProt P29275); assay: Intracellular cAMP functional assay (HTRF), A2B; conditions: read-out: Human A2B EC50, HEK293 cells expressing recombinant human receptor
Procedure: as §1

[3] = target: human A1 receptor (Homo sapiens (Human), UniProt P30542); assay: Intracellular cAMP functional assay (HTRF), A1; conditions: read-out: Human A1 EC50, HEK293 cells expressing recombinant human receptor
Procedure: as §1

[4] = target: human A2A receptor (Homo sapiens (Human), UniProt P29274); assay: Intracellular cAMP functional assay (HTRF), A2A; conditions: read-out: Human A2A EC50, HEK293 cells expressing recombinant human receptor
Procedure: as §1

In the case of `Cc1cc(-c2sc(Nc3nc[nH]n3)nc2-c2cccc(C#N)c2)c(C)cn1`, the pEC50 [1] was < 4.70, the pEC50 [2] was 8.82 and the pEC50 [3] was 6.60. The pEC50 [4] was < 5.00.

pEC50: −log10 of the molar value.
